The source made the active and inactive calls. The rule behind the calls is not given here.
What was measured:
Mus musculus [1] = test: Effect on CB1-dependent cannabinoid-mediated hypothermia in Swiss Webster mouse at 4 mg/kg, ip
Mus musculus [2] = test: Effect on CB1-dependent cannabinoid-mediated cataleptic behavior in KIAA1363-expressing Swiss Webster mouse at 100 mg/kg, ip
Mus musculus [3] = test: Inhibition of MAGL activity in KIAA1363-expressing Swiss Webster mouse at 100 mg/kg, ip
Mus musculus [4] = test: Inhibition of FAAH activity in KIAA1363-expressing Swiss Webster mouse brain at 100 mg/kg, ip

SMILES | Activity (Mus musculus [1]) | Activity (Mus musculus [2]) | inhibition (Mus musculus [3]) | inhibition (Mus musculus [4])
CCOP(=O)(OCC)Oc1nc(Cl)c(Cl)cc1Cl | Active | inactive | – | –
CCOP(=S)(OCC)Oc1nc(Cl)c(Cl)cc1Cl | – | – | Active | Active

— ChEMBL document CHEMBL1221209
